The record followed here is PubChem BioAssay AID567 (The Scripps Research Institute Molecular Screening Center, 2006).

Chains of the proteins cited; added tags and fusions are not shown.
UniProt P08908, whole entry: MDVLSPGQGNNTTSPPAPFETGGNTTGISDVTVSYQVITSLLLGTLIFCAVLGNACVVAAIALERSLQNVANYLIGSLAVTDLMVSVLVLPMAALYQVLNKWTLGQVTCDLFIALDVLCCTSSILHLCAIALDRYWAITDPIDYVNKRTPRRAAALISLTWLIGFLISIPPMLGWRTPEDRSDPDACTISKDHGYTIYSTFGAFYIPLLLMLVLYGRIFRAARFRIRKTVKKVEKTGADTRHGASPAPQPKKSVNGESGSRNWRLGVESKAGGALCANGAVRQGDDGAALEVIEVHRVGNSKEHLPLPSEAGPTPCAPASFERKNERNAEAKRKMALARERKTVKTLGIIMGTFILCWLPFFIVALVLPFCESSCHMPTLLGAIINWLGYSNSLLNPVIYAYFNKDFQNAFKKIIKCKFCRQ

Only a part is listed here, and it is no random draw. Calls of active or inactive are those of the source.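 Rule for the calls: active = activation above the screen-wide mean activation plus 3 SD (cut at about 19% in these data); inactive = the rest.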

The assay addresses 5-hydroxytryptamine receptor 1A (Homo sapiens) (UniProt P08908). Briefly: human 5-HT1a receptor agonists, primary screen, cell-based, CHO, Ga15 NFAT-bla reporter (AID 567).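 Note: 0% = DMSO wells and 100% = 5-CT at EC100.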 Conditions: CHO 5-HT1a Ga15 NFAT-bla reporter, FRET ratio; at 10 µM; stronger effect = higher value; 0% basal, 100% maximal reference agonist.
As to `CN(C)CCOC(=O)C(O)(c1ccccc1)C1CCCCC1` (stereo not drawn), the activation was inactive: -4.57%.

Consider `CCOP(C)(=S)SCC(=O)NC(C)(CC)C(=O)O` (stereo not drawn), for which the activation is inactive: -2.26%.

On to `Cc1ccccc1NP(C)(=O)Nc1ccccc1C`, for which the activation is inactive: -4.48%.

In the case of `CP(=O)(Nc1ccc2c(c1)OCCO2)Oc1ccccc1` (stereo not drawn), the activation is inactive: -0.41%.

As for `CP(=O)(Nc1ccccc1F)Oc1ccccc1` (stereo not drawn), the activation is inactive: -0.43%.

Turning to `COc1ccccc1OP(C)(=O)Nc1ccc(C)c(C)c1` (stereo not drawn), the activation was inactive: -0.9%.

With `Cc1nc2ccc3ccccc3c2o1.O=[N+]([O-])c1cc([N+](=O)[O-])c(O)c([N+](=O)[O-])c1`, the activation is inactive: -3.21%.

With `CP(=O)(Nc1ccccn1)Oc1ccccc1` (stereo not drawn), the activation is inactive: -3.2%.

Consider `CP(=O)(Oc1ccccc1)N1CCOC1=O` (stereo not drawn), for which the activation was inactive: -0.6%.

`COc1ccccc1OP(C)(=O)Nc1c(C)n(C)n(-c2ccccc2)c1=O` (stereo not drawn): the activation is inactive: 1.59%.

`CCN(CC)CC(O)COC(=O)C(O)(c1ccccc1)C1CCCCC1` (stereo not drawn): the activation was inactive: 1.99%.

As for `CP(=S)(Nn1cnnc1)Oc1ccccc1` (stereo not drawn), the activation is inactive: -1.61%.

As to `CP(=O)(NC(=O)Nc1ccccc1)Oc1ccccc1` (stereo not drawn), the activation is inactive: -0.22%.

As for `CCOP(C)(=S)SCC(=O)NC(C)C(=O)O` (stereo not drawn), the activation is inactive: -2.14%.

For the molecule `COc1ccccc1OP(C)(=O)Nc1ccc(C)cc1` (stereo not drawn), the activation was inactive: -2.81%.

Consider `Cc1ccc(NP(C)(=O)Oc2ccccc2)c(C)c1` (stereo not drawn), for which the activation was inactive: -1.84%.

On to `Cc1ccc(C)c(NP(C)(=O)Oc2ccccc2)c1` (stereo not drawn), for which the activation was inactive: 0.58%.

Consider `Cc1nc2ccc3ccccc3c2s1.O=[N+]([O-])c1cc([N+](=O)[O-])c(O)c([N+](=O)[O-])c1`, for which the activation is inactive: -0.92%.
